The numbers were not newly measured in paper PMC8599628 (Journal of clinical pharmacology, 2021), which cites them from elsewhere.

The structures appear in SMILES notation. Read-outs that look alike come from different tables or passages of the source.

The conditions of data set [1]: cited from earlier work; for CL/F typical value: myelofibrosis patients.
The conditions of data set [2]: cited from earlier work.

Turning to `N#CC[C@H](C1CCCC1)n1cc(-c2ncnc3[nH]ccc23)cn1` [ruxolitinib], the Ka in data set [1] was 4.12 h⁻¹. For the same molecule, the Q/F in data set [1] was 2.53 L/h. The CL/F typical value is 22.1 L/h in data set [1] (men) and 17.7 L/h in data set [1] (women). For the same molecule, the “CL/F (mean)” value in data set [2] (10 mg tablet, N = 16, %CV 40.6%) is 12.6 Lhr^−1; in data set [2] (25 mg tablet, N = 47, %CV 29.8%), 16.8 L/h; in data set [2] (200 mg tablet, N = 48, %CV 29.6%), 16.9 ± 5.01 L/h.
